Data on 1 compound can be found in US9463173B2, “Compositions and methods for treating obesity and obesity-related conditions” (THE JOHNS HOPKINS UNIVERSITY, priority 2014, dated 2016).

Amino acid sequences for entries named in this document (tags omitted).
UniProt Q13547, whole entry: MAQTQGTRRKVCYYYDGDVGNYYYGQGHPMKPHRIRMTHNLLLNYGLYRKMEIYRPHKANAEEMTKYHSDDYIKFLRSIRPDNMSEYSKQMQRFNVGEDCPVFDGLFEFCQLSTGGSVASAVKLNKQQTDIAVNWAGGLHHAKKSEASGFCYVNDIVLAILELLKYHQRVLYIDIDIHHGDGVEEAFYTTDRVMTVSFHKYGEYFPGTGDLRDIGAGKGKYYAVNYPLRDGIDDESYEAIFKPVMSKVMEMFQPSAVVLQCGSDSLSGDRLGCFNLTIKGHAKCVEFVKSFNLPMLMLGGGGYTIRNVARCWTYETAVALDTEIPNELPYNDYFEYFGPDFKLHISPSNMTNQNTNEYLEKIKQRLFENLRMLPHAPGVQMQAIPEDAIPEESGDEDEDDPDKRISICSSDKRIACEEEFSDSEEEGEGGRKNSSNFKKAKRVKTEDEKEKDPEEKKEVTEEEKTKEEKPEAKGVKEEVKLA

The assay has as its target human recombinant HDAC1 (Homo sapiens, UniProt Q13547). Description: HDAC activity fluorometric assay, recombinant HDAC1. Particulars: 800 mM VPA; 1 mM TSA; 20 mM metabolites; mean ± S.D. The assay is classed as biochemical.

For `CC(/C=C/C(=O)NO)=C\[C@@H](C)C(=O)c1ccc(N(C)C)cc1` [TSA, trichostatin A], the deacetylation is 28.9±5.5%.
